Assay results taken from US10098888B2, “Substituted benzene compounds” (Epizyme, Inc., priority 2012, dated 2018).
Like-named read-outs stand apart in the source and are kept apart here.

Test system: CYP1A, CYP2B6, CYP2C9, CYP3A
[1] = human hepatocytes, 1 or 10 μmol/L, 48 hours

| Structure (SMILES) | CYP induction (conclusion in words) [1] | CYP induction (conclusion in words) |
| --- | --- | --- |
| CCN(c1cc(-c2ccc(OCCOC)cc2)cc(C(=O)NCc2c(C)cc(C)[nH]c2=O)c1C)[C@H]1CC[C@H](N(C)C)CC1 [Compound 1, N-((4,6-dimethyl-2-oxo-1,2-dihydropyridin-3-yl)methyl)-5-(((trans)-4-(dimethytamino)-cyclohexyl)(ethyl)-amino)-4′-(2-methoxyethoxy)-4-methyl-[1,1′-biphenyl]-3-carboxamide] | no significant induction (except potentially CYP2C9) | – |
| CCN(c1cc(C#CCN2CCOCC2)cc(C(=O)NCc2c(C)cc(C)[nH]c2=O)c1C)[C@H]1CC[C@H](N(C)CCOC)CC1 [Compound 2, N-((4,6-dimethyl-2-oxo-1,2-dihydropyridin-3-yl)methyl)-3-(ethyl((trans)-4-((2-methoxyethyl)(methyl)amino)cyclohexyl)amino)-2-methyl-5-(3-morpholinoprop-1-yn-1-yl)benzamide] | no induction (with slightly lower activity) | – |
| CCN(c1cc(C#CC2CCN(C)CC2)cc(C(=O)NCc2c(C)cc(C)[nH]c2=O)c1C)C1CCOCC1 [Compound 105, N-((4,6-Dimethyl-2-oxo-1,2-dihydropyridin-3-yl)methyl)-3-(ethyl(tetrahydro-2H-pyran-4-yl)amino)-2-methyl-5-((1-methylpiperidin-4-yl)ethynyl)benzamide] | – | induction of CYP2B6, CYP2C9, and CYP3A |
